By UniProt entry, the sequences of proteins in these tests, tags left out.
UniProt O43614, whole entry: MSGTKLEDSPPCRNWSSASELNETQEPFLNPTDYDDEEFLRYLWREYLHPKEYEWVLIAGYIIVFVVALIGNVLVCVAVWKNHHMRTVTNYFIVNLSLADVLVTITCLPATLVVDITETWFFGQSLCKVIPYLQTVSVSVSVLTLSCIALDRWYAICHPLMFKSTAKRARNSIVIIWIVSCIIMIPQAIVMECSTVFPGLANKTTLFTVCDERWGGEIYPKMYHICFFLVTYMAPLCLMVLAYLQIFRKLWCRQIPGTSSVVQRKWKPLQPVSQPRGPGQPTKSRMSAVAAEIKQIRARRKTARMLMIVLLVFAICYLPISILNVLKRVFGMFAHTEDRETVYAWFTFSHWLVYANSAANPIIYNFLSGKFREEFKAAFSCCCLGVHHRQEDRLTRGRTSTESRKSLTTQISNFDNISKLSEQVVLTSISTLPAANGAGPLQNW

The first test concerns the target T1, OX2 (Homo sapiens, UniProt O43614).
T1 construct: expressed in transfected cells; host or cells: CHO (CHO-OX2, kept under selection antibiotic)
Briefly: Orexin receptor cell-based functional assay, [Ca2+]i by FLIPR, CHO-OX2 cells. The conditions noted are these: CHO-OX2 cells, [Ca2+]i by FLIPR, antagonist dose-range 0.1 nM-10 μM, EC90 of OXA; read-out: OX2.
Regarding `Cc1ccc(-n2nccn2)c(C(=O)N2CCC[C@@H](C)[C@H]2CNc2ncc(Cl)cc2F)c1` [Example A173, ((2S,3R)-2-(((5-Chloro-3-fluoropyridin-2-yl)amino)methyl)-3-methylpiperidin-1-yl)(5-methyl-2-(2H-1,2,3-triazol-2-yl)phenyl)methanone], the IC50 is greater than 5 µM.

For `C[C@@H]1CCCN(C(=O)c2cccc(F)c2-n2nccn2)[C@@H]1CNc1ncc(C(F)(F)F)cn1` [Example A256, (3-Fluoro-2-(2H-1,2,3-triazol-2-yl)phenyl)((2S,3R)-3-methyl-2-(((5-(trifluoromethyl)pyrimidin-2-yl)amino)methyl)piperidin-1-yl)methanone], the IC50 was greater than 5 µM.

Take `Cc1ccc(-n2nccn2)c(C(=O)N2CCC[C@@H](C)[C@H]2CNc2ccc(C#N)cn2)n1` [Example A189, 6-((((2S,3R)-3-Methyl-1-(6-methyl-3-(2H-1,2,3-triazol-2-yl)picolinoyl)piperidin-2-yl)methyl)amino)nicotinonitrile]: the IC50 was greater than 5 µM. Same read-out and setting: for `Cc1ccc(-n2nccn2)c(C(=O)N2CCC[C@@H](C)[C@H]2CNc2ncc3cc(Br)ccc3n2)c1` [Example A122, ((2S,3R)-2-(((6-Bromoquinazolin-2-yl)amino)methyl)-3-methylpiperidin-1-yl)(5-methyl-2-(2H-1,2,3-triazol-2-yl)phenyl)methanone] the value was greater than 5 µM; for `Cc1ccc(-n2nccn2)c(C(=O)N2CCC[C@@H](C)[C@H]2CNc2ccc(Cl)cn2)n1` [Example A178, ((2S,3R)-2-(((5-Chloropyridin-2-yl)amino)methyl)-3-methylpiperidin-1-yl)(6-methyl-3-(2H-1,2,3-triazol-2-yl)pyridin-2-yl)methanone], greater than 5 µM; for `C[C@@H]1CCCN(C(=O)c2cc(F)c(F)cc2-n2nccn2)[C@@H]1CNc1ncc(Cl)cn1` [Example A247, ((2S,3R)-2-(((5-Chloropyrimidin-2-yl)amino)methyl)-3-methylpiperidin-1-yl)(4,5-difluoro-2-(2H-1,2,3-triazol-2-yl)phenyl)methanone], greater than 5 µM. Still for that read-out and setting: for `C[C@@H]1CCCN(C(=O)c2cc(F)c(F)cc2-c2ncccn2)[C@@H]1CNc1ncc(Cl)cn1` [Example A244, ((2S,3R)-2-(((5-Chloropyrimidin-2-yl)amino)methyl)-3-methylpiperidin-1-yl) (4,5-difluoro-2-(pyrimidin-2-yl)phenyl)methanone] the value was greater than 5 µM; for `Cc1nc(C(=O)N2CCC[C@@H](C)[C@H]2CNc2nc3cc(Cl)ccc3o2)c(-c2ccc(F)cc2)s1` [Example A84, ((2S,3R)-2-(((5-Chlorobenzo[d]oxazol-2-yl)amino)methyl)-3-methylpiperidin-1-yl)(5-(4-fluorophenyl)-2-methylthiazol-4-yl)methanone], greater than 4 µM; for `C[C@@H]1CCCN(C(=O)c2cccc(F)c2-c2ncccn2)[C@@H]1CNc1ccc(C(F)(F)F)cn1` [Example A233, (3-Fluoro-2-(pyrimidin-2-yl)phenyl)((2S,3R)-3-methyl-2-(((5-(trifluoromethyl)pyridin-2-yl)amino)methyl)piperidin-1-yl)methanone], 0.81 µM. Same read-out and setting: the result for `Cc1ccc(-n2nccn2)c(C(=O)N2CC3CCCC3C2CNc2ccc(C(F)(F)F)cn2)c1` (stereo not shown) [Example A69, (5-Methyl-2-(2H-1,2,3-triazol-2-yl)phenyl)(1-(((5-(trifluoromethyl)pyridin-2-yl)amino)methyl)hexahydrocyclopenta[c]pyrrol-2(1H)-yl)methanone] reads 1.4 µM. With `Cc1ccc(-n2ncc(C)n2)c(C(=O)N2CCC[C@@H](C)[C@H]2CNc2nnc(C(F)(F)F)s2)c1` [Example A135, ((2S,3R)-3-Methyl-2-(((5-(trifluoromethyl)-1,3,4-thiadiazol-2-yl)amino)methyl)piperidin-1-yl)(5-methyl-2-(4-methyl-2H-1,2,3-triazol-2-yl)phenyl)methanone], the IC50 is greater than 5 µM. Turning to `Cc1ccc(-c2ccn(C)n2)c(C(=O)N2CCC[C@@H](C)[C@H]2CNc2ccc(C(F)(F)F)cn2)c1` [Example A18, ((2S,3R)-3-Methyl-2-(((5-(trifluoromethyl)pyridin-2-yl)amino)methyl)piperidin-1-yl)(5-methyl-2-(1-methyl-1H-pyrazol-3-yl)phenyl)methanone], the IC50 was greater than 4 µM. `Cc1ccc(-c2cnn(C)c2)c(C(=O)N2CCC[C@@H](C)[C@H]2CNc2nc3ccc(Cl)cc3o2)c1` [Example A10, ((2S,3R)-2-(((6-Chlorobenzo[d]oxazol-2-yl)amino)methyl)-3-methylpiperidin-1-yl)(5-methyl-2-(1-methyl-1H-pyrazol-4-yl)phenyl)methanone]: the IC50 is greater than 4 µM. On the same count and under the same terms, the result for `Cc1cncc(-c2ccc(C)cc2C(=O)N2CCC[C@@H](C)[C@H]2CNc2ccc(C(F)(F)F)cn2)c1` [Example A5, ((2S,3R)-3-Methyl-2-(((5-(trifluoromethyl)pyridin-2-yl)amino)methyl)piperidin-1-yl)(5-methyl-2-(5-methylpyridin-3-yl)phenyl)methanone] reads 3.5 µM; that for `Cc1ccc(-n2nccn2)c(C(=O)N2CCC[C@@H](C)[C@H]2CNc2ccc(Cl)cn2)c1` [Example A78, ((2S,3R)-2-(((5-Chloropyridin-2-yl)amino)methyl)-3-methylpiperidin-1-yl)(5-methyl-2-(2H-1,2,3-triazol-2-yl)phenyl)methanone], 2.9 µM; that for `Cc1ccc(-n2nccn2)c(C(=O)N2CCC[C@@H](C)[C@H]2CNc2cccc(C)n2)c1` [Example A79, ((2S,3R)-3-Methyl-2-(((6-methylpyridin-2-yl)amino)methyl)piperidin-1-yl)(5-methyl-2-(2H-1,2,3-triazol-2-yl)phenyl)methanone], greater than 4 µM. The same measure, in the same setting: the result for `Cc1ccc(-n2nccn2)c(C(=O)N2CCC[C@@H](C)[C@H]2CNc2nc3cc(Cl)ccc3o2)c1` [Example A11, ((2S,3R)-2-(((5-Chlorobenzo[d]oxazol-2-yl)amino)methyl)-3-methylpiperidin-1-yl)(5-methyl-2-(2H-1,2,3-triazol-2-yl)phenyl)methanone] reads 0.045 µM; that for `Cc1ccc(-n2nccn2)c(C(=O)N2CCC[C@@H](C)[C@H]2CNc2ncc3ccc(C)cc3n2)c1` [Example A215, ((2S,3R)-3-Methyl-2-(((7-methylquinazolin-2-yl)amino)methyl)piperidin-1-yl)(5-methyl-2-(2H-1,2,3-triazol-2-yl)phenyl)methanone], 1.3 µM. Still for that read-out and setting: for `Cc1ccc(-c2cccnc2)c(C(=O)N2CCC[C@@H](C)[C@H]2CNc2ncc(Cl)cn2)n1` [Example A222, ((2S,3R)-2-(((5-Chloropyrimidin-2-yl)amino)methyl)-3-methylpiperidin-1-yl)(6-methyl-[3,3′-bipyridin]-2-yl)methanone] the value was greater than 5 µM.

For the compound `Cc1ccc(-c2ncccn2)c(C(=O)N2CCC[C@@H](C)[C@H]2CNc2ccc(C(F)(F)F)nn2)n1` [Example A185, ((2S,3R)-3-Methyl-2-(((6-(trifluoromethyl)pyridazin-3-yl)amino)methyl)piperidin-1-yl)(6-methyl-3-(pyrimidin-2-yl)pyridin-2-yl)methanone], the IC50 is greater than 5 µM.

For the compound `Cc1ccc(-n2nccn2)c(C(=O)N2CCC[C@@H](C)[C@H]2CNc2ncc(C(F)(F)F)cn2)n1` [Example A175, ((2S,3R)-3-Methyl-2-(((5-(trifluoromethyl)pyrimidin-2-yl)amino)methyl)piperidin-1-yl)(6-methyl-3-(2H-1,2,3-triazol-2-yl)pyridin-2-yl)methanone], the IC50 is greater than 5 µM. Still for that read-out and setting: for `Cc1ccc(-c2ncccn2)c(C(=O)N2CCC[C@@H](C)[C@H]2CNc2nc3cc(F)ccc3o2)c1` [Example A206, ((2S,3R)-2-(((5-Fluorobenzo[d]oxazol-2-yl)amino)methyl)-3-methylpiperidin-1-yl)(5-methyl-2-(pyrimidin-2-yl)phenyl)methanone] the value was 0.14 µM. The same measure, in the same setting: for `C[C@@H]1CCCN(C(=O)c2cccc(F)c2-n2nccn2)[C@@H]1CNc1ccc(Cl)cn1` [Example A254, ((2S,3R)-2-(((5-Chloropyridin-2-yl)amino)methyl)-3-methylpiperidin-1-yl)(3-fluoro-2-(2H-1,2,3-triazol-2-yl)phenyl)methanone] the value was greater than 5 µM.

Still in this test, the particulars now being: Table 2; CHO-OX2 cells, EC90 of OXA; read-out: IC50 Bioactivity OX2.
In the case of `Cc1ccc(-n2nccn2)c(C(=O)N2CCC[C@@H](C)[C@H]2CNc2ncc(C(F)(F)F)cn2)c1` (racemic) [Example 97, rac-cis-(3-Methyl-2-(((5-(trifluoromethyl)pyrimidin-2-yl)amino)methyl)piperidin-1-yl)(5-methyl-2-(2H-1,2,3-triazol-2-yl)phenyl)methanone], the IC50 is greater than 10 µM. The same measure, in the same setting: for `Cc1nc(C(=O)N2CCC[C@@H](C)[C@H]2CNc2nccc(Cl)n2)c(-c2ccc(F)cc2)s1` (racemic) [Example 20, rac-cis-(2-(((4-Chloropyrimidin-2-yl)amino)methyl)-3-methylpiperidin-1-yl)(5-(4-fluorophenyl)-2-methylthiazol-4-yl)methanone] the value was greater than 10 µM. The same measure, in the same setting: the result for `Cc1nc(C(=O)N2CCC[C@@H](C)[C@H]2CNc2ncc(Cl)cn2)c(-c2ccc(F)cc2)s1` (racemic) [Example 82, rac-cis-(2-(((5-Chloropyrimidin-2-yl)amino)methyl)-3-methylpiperidin-1-yl)(5-(4-fluorophenyl)-2-methylthiazol-4-yl)methanone] reads greater than 10 µM; that for `CCc1cnc(NC[C@@H]2[C@H](C)CCCN2C(=O)c2nc(C)sc2-c2ccc(F)cc2)nc1` (racemic) [Example 16, rac-cis-(2-(((5-Ethylpyrimidin-2-yl)amino)methyl)-3-methylpiperidin-1-yl)(5-(4-fluorophenyl)-2-methylthiazol-4-yl)methanone], greater than 10 µM. On to `Cc1nc(C(=O)N2CC(O)CCC2CNC(=O)c2cccc3cccnc23)c(-c2cccc(F)c2)s1` (racemic) [Example 51, N-((1-(5-(3-Fluorophenyl)-2-methylthiazole-4-carbonyl)-5-hydroxypiperidin-2-yl)methyl)quinoline-8-carboxamide], for which the IC50 stood at 0.075 µM.

These data come from patent publication US9440982B2 (Eolas Therapeutics, Inc., priority 2012, dated 2016).
